Test results reported in patent US8859541B2, “6-alkynylpyridines” (Boehringer Ingelheim International GmbH, priority 2012, dated 2014).

By UniProt entry, the sequences of proteins in these tests, tags left out. Residues count along the entry.
UniProt P98170, 241-356: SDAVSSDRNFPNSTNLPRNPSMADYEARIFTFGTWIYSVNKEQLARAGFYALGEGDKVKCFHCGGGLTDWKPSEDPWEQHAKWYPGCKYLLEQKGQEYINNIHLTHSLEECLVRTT
UniProt Q13490, 256-363: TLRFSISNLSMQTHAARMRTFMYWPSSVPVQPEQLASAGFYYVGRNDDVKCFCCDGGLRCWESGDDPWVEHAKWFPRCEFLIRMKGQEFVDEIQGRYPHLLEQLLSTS

Experiments:
[1] = target: T1, XIAP BIR3 (Homo sapiens, UniProt P98170); experiment: XIAP BIR3 binding assay (DELFIA), displacement of SMAC peptide
T1 construct: covering amino acids 241 to 356; XIAP BIR3; made in house; host or cells: E. coli
Procedure: (§1) Biological Methods XIAP BIR3 and cIAP1 BIR3 Binding Assays (DELFIA)
(§2) Peptide […]-Lys(Biotin), representing the N-terminus of mature human SMAC (SMAC peptide), was used as interaction partner in the protein-peptide interaction assay.
(§3) BIR3 domains (10 nM) were incubated with SMAC peptide (10 nM) in Assay Buffer (50 mM Tris, 120 mM NaCl, 0.1% BSA, 1 mM DTT, 0.05% TritonX100) for one hour at room temperature in the presence of inhibitiory compounds. The assay mixture was transferred to a strepatvidin coated plate and incubated for one hour at room temperature to allow binding of the biotinylated peptide and associated BIR3 domains to the plate. After several washing steps Eu labeled anti-GST antibody (e.g. Perkin Elmer DELFIA Eu-N1-antiGST AD0250) was added to detect BIR3 domain-SMAC peptide interactions according to Perkin Elmer's instructions. […] Time resolved Europium fluoresecence was measured in a Wallac Victor using Standard assay settings.
(§4) DELFIA assay results were plotted against compound concentrations and Software GraphPad Prizm was used to calculate half maximal inhibitory concentrations (IC50 values).

[2] = target: T2, cIAP1 BIR3 (Homo sapiens, UniProt Q13490); experiment: cIAP1 BIR3 binding assay (DELFIA), displacement of SMAC peptide
T2 construct: covering amino acids 256 to 363; cIAP1 BIR3; made in house; host or cells: E. coli
Procedure: as §1, §2, §3, §4

Q: `CNC(C)C(=O)Nc1ccc(-c2c(-c3ccncc3)nc3cc(C)ccn23)c(C#Cc2ccc3ncccc3c2)n1` (centres unmarked) [Example 27, 2-(methylamino)-N-[5-(7-methyl-2-pyridin-4-ylimidazo[1,2-a]pyridin-3-yl)-6-(2-quinolin-6-ylethynyl)pyridin-2-yl]propanamide] was tested. Which pIC50 [1] did it give?
A: The pIC50 was 7.10.

Q: What about the pIC50 [2] of the same compound?
A: Its pIC50 is 9.00.

pIC50: −log10 of the molar value.
